In this assay the test system is Escherichia coli. Nature of the assay: Ratio of Kcat to Km for Escherichia coli JM109 harboring recombinant pKHM-1 Beta-lactamase KHM-1 assessed as compound hydrolysis by UV-visible spectrophotometry.

On to `CO/N=C(\C(=O)N[C@@H]1C(=O)N2C(C(=O)O)=C(COC(C)=O)CS[C@H]12)c1csc(N)n1` [CEFOTAXIME], for which the kcat/Km was found to be 1.7 ×10⁸ /M/s.

For the origin of these results see ChEMBL document CHEMBL1275547, “KHM-1, a novel plasmid-mediated metallo-beta-lactamase from a Citrobacter freundii clinical isolate” (2008).
